Measured values taken from patent US20060194971A1, “Anethole dithiolethione and other dithiolethiones for the treatment of conditions associated with dysfunction of monoamine neruotransmission” (priority 2005, published 2006).
Like-named read-outs stand apart in the source and are kept apart here.

The chains behind the UniProt entries cited, without tags or fusion partners.
UniProt P21396, whole entry: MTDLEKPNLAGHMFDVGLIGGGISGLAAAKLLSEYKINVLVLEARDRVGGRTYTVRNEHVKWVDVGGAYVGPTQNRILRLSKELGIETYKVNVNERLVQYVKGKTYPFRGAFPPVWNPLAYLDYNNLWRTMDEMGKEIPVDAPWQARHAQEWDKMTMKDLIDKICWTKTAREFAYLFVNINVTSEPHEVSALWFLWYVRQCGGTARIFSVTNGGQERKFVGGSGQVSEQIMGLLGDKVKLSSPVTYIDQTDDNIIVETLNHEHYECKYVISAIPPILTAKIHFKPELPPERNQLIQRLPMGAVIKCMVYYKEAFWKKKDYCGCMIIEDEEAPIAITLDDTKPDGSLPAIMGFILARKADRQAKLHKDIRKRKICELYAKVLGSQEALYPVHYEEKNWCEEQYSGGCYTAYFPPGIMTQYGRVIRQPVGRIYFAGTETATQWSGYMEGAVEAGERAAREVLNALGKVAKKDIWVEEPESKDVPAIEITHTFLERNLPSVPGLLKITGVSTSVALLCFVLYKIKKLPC

Tests used:
[1] = biological target: monoamine oxidase A (MAO-A) (Rattus norvegicus, UniProt P21396)
Experimental: (§1) Neonatal rat striatal astroglial cells were used as a source for both MAO-A and MAO-B activity (Carlo et al., Brain Res 711, 175-183, 1996). Astroglial cells were cultured as described (Langeveld et al., Neurosci. Lett. 192, 13-16, 1995). Following one week in culture in 5% CO2/95% air and at 37° C., cells were trypsinized and sonicated in ice cold 25 mM Tris-HCl buffer (pH 7.4) containing 1 mM EDTA. Thereafter, the obtained lysates were centrifuged for 5 min at 1 0,000 g and 4° C., and aliquots of the supernatant fractions were taken for determination of MAO activity using the Amplex Red MAO assay kit (Molecular Probes, Leiden, The Netherlands), which is based on the method described by Zhou and Panchuk-Voloshina (Anal. Biochem. 253, 169-174, 1997). Measurements were performed according to the manufacturers instructions. Briefly, prior to addition of the substrate, the samples were incubated for 30 min in a 96 well plate with drugs or solvent (total volume of 50 μl). Thereafter, 50 μl Amplex Red reagent was added containing 2 U/ml horseradisch peroxidase (HRP), p-tyramine HCl (2 mM, substrate for both MAO A and MAO B (Youdim and Finberg, Biochem. Pharmacol., 41, 155-162, 1991) and Amplex red (10 mM). Under these circumstances, via MAO-catalyzed oxidation of tyramine in a HRP-coupled reaction, Amplex red is converted to fluorescent resorufin. To measure MAO activity, the time-dependent increase in resorufin formation was determined at 2 min time intervals for 30 min at room temperature in a fluorescence microplate reader (BMG Labtechnologies GmbH, Germany), using excitation at 544 nm and emission at 595 nm. […] For calculation of results, the data were corrected for background readings (i.e., in the absence of the MAO substrate tyramine), and expressed as the increase in arbitrary fluorescence units/min. Protein content was determined according to the method of Bradford et al., (Anal. Biochem. 72, 248-254, 1976), using BSA as a standard. Statistical comparisons between groups were made using a one-way analysis of variance (ANOVA) followed by a Newman-Keuls post-hoc test. P values <0.01 were considered significant.
(§2) MAO activity and effects of the drugs thereon were determined as detailed above.
(§3) Data are expressed as percentages of respective controls, and are averages of two till five independent experiments performed in triplicate.

[2] = tested on: total monoamine oxidase (Σ MAO); conditions: for Σ MAO activity (% inhibition): solvent 0.03% DMSO only, neonatal rat striatal astroglial cell extracts
Experimental: as §1, §2, §3

SMILES	MAO-A activity (% inhibition) ([1]; 0.1 μM, in the presence of 1 μM deprenyl, astroglial cell extracts)	inhibition of remaining MAO activity (approximately 20%) ([1]; in the presence of a maximally effective concentration of deprenyl)	Σ MAO activity (% inhibition) ([2]; 0.003 μM)	Σ MAO activity (% inhibition) ([2]; 0.01 μM)	Σ MAO activity (% inhibition) ([2]; 0.03 μM)	Σ MAO activity (% inhibition) ([2]; 0.1 μM)	Σ MAO activity (% inhibition) ([2]; 0.3 μM)	Σ MAO activity (% inhibition) ([2]; 1 μM)	IC50 ([2]; read-out: apparent IC50, inhibition of total astroglial MAO activity, substrate tyramine, astroglial cell extracts)
C#CCN(C)CCCOc1ccc(Cl)cc1Cl [Clor, clorgyline]	100%	inhibited completely							
C#CCN(C)[C@H](C)Cc1ccccc1 [L-dep, deprenyl]			2%	10%	28%	56%	73%	79%	~40 nM
